# System: HCT116 cells
# Chains of the proteins cited; added tags and fusions are not shown.
# UniProt Q14191, whole entry: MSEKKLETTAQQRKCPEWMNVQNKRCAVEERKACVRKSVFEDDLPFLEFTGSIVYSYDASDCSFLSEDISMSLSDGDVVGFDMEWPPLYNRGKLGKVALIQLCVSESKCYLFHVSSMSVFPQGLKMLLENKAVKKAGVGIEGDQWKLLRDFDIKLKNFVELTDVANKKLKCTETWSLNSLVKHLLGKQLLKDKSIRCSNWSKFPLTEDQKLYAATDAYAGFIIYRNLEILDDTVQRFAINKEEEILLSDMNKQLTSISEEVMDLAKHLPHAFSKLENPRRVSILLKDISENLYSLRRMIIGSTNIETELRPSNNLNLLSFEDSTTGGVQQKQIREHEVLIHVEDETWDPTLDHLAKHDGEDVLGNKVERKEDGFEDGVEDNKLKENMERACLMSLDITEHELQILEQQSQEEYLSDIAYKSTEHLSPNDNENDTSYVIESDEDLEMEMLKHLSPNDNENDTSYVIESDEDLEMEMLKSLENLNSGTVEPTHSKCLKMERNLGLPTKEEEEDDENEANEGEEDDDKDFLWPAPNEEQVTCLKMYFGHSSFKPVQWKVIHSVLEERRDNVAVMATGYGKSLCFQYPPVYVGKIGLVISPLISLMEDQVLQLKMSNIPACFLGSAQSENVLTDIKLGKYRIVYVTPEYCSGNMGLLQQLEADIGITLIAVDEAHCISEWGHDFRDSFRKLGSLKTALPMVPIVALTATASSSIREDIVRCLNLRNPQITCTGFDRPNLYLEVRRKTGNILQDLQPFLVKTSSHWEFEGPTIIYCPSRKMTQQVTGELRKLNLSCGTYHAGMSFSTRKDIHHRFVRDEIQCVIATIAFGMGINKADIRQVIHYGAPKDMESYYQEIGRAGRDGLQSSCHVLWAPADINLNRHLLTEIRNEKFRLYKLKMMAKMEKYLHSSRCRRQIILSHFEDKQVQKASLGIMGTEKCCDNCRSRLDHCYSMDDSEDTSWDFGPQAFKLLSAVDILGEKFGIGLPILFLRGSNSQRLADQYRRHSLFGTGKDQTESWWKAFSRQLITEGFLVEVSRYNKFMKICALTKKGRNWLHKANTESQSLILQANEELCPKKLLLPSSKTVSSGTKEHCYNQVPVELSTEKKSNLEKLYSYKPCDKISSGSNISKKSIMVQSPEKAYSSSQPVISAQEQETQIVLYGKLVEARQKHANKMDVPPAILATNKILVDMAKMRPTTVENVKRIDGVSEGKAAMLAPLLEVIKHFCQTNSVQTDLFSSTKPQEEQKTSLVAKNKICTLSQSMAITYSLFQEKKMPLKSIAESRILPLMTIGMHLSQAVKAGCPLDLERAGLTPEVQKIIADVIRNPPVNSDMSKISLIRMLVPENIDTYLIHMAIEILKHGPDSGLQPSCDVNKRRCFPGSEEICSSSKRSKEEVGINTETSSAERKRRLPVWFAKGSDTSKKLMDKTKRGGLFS
# Assay: Inhibitory activity assay for tumor cell proliferation (CellCounting-Lite), HCT116
# Settings: read-out: HCT116 Proliferation inhibition IC50, 4 days treatment
# Description: (§1) Human colonic adenocarcinoma SW48 cells were cultured in monolayer in vitro under the following conditions: DMEM medium containing 10% fetal bovine serum and 1% penicillin and streptomycin, at 37 °C with 5% CO2. Human colonic adenocarcinoma HCT116 cells were cultured in monolayer in vitro under the following conditions: McCOY's5A medium containing 10% fetal bovine serum and 1% penicillin and streptomycin, at 37 °C with 5% CO2. DLD1-WRN-KO cells were cultured in monolayer in vitro under the following conditions: 1640 medium containing 10% fetal bovine serum and 1% penicillin and streptomycin, at 37 °C with 5% CO2. The cells were digested with trypsin twice a week for passaging.
# (§2) After treatment of SW48 cell lines and HCT116 cell lines with microsatellite instability and the control DLD1-WRN-KO cell line using the test compounds for 4 days, ATP levels were measured using a CellCounting-Lite kit from Vazyme to evaluate inhibitory effects of the test compounds on the growth of tumor cell lines.
# (§3) In the present application, the SW48 cell line, the HCT116 cell line, and the DLD1-WRN-KO cell line were seeded into a 96-well cell culture plate at an appropriate cell density. After 24 h, the cells were treated with the test compounds at the highest concentration of 10 µM, followed by 1:3 serial dilution to obtain 9 concentration gradients, and a DMSO treatment group was set up separately. The cells were cultured in an incubator at 37 °C with 5% CO2 for 4 days. To evaluate inhibitory effects of the test compounds on tumor cell proliferation, the cells were equilibrated at room temperature for 30 min, and then 100 µL of a cell proliferation detection reagent, CellCounting-Lite (CCL), was added to each well. The plate was shaken for 5 min and then incubated in the dark for 10 min. Chemiluminescence values were read using a Thermo Varioskan LUX-3020 multifunctional microplate reader for conversion to proliferation indices to calculate the inhibition rate of the compound on tumor cell proliferation, and the inhibition rate value and the logarithm value of the compound concentration were fitted using non-linear regression (dose response-variable slope) to obtain the IC50 value of the compound. Table 2. Inhibitory activity data of compounds in the examples of the present application against tumor cell proliferation
row,IC50,Structure (SMILES)
1,9.7 nM,"Cc1ncnc(C(=O)N2CCN(c3c4n(c5nc(-c6ccccn6)nn5c3=O)C(C(=O)Nc3ccc5c(c3C)OC(F)(F)O5)CC4C)C3CCC32)c1O (single isomer, unassigned) [C143-P1]"

# System: SW48 cells
# Assay: Inhibitory activity assay for tumor cell proliferation (CellCounting-Lite), SW48
# Settings: read-out: SW48 Proliferation inhibition IC50, 4 days treatment
# Description: as §1, §2, §3
row,IC50,Structure (SMILES)
1,0.2 nM,Cc1ncnc(C(=O)N2CCN(c3c4n(c5nc(-c6ccccc6)nn5c3=O)[C@@H](C(=O)Nc3ccc5c(c3Cl)OC(F)(F)O5)C[C@@H]4C)[C@H]3CC[C@@H]32)c1O
2,240 nM,"Cc1ncnc(C(=O)N2CCN(c3c4n(c5nc(-c6ccccc6)nn5c3=O)C(C(=O)Nc3ccc5c(c3Cl)OC(F)(F)O5)CC4C)[C@H]3CC[C@@H]32)c1O (single isomer, unassigned) [C89-P2]"
3,148 nM,"Cc1ncnc(C(=O)N2CCN(c3c4n(c5nc(-c6ccccc6)nn5c3=O)C(C(=O)Nc3ccc5c(c3Cl)OC(F)(F)O5)CC4C)CC2)c1O (single isomer, unassigned) [C90-P2]"
4,0.2 nM,"Cc1ncnc(C(=O)N2CCN(c3c4n(c5nc(-c6ccccc6)nn5c3=O)C(C(=O)Nc3ccc5c(c3Cl)OC(F)(F)O5)CC4C)[C@H]3CC[C@@H]32)c1O (single isomer, unassigned) [C89-P3]"
5,12 nM,"Cc1ncnc(C(=O)N2CCN(c3c4n(c5nc(-c6ccccn6)nn5c3=O)C(C(=O)Nc3ccc5c(c3C)OC(F)(F)O5)CC4C)C3CCC32)c1O (single isomer, unassigned) [C143-P1]"
6,2 nM,Cc1ncnc(C(=O)N2CCN(c3c4n(c5nc(-c6ccccc6)nn5c3=O)C(C(=O)Nc3ccc(C(F)(F)F)cc3Cl)CC4C)[C@H]3CC[C@@H]32)c1O (stereo partly shown)
7,29 nM,"Cc1ncnc(C(=O)N2CCN(c3c4n(c5nc(-c6ccccc6)nn5c3=O)C(C(=O)Nc3ccc5c(c3Cl)OC(F)(F)O5)CC4C)CC2)c1O (single isomer, unassigned) [C90-P3]"

# Molecular target: WRN helicase (Homo sapiens, UniProt Q14191)
# Assay: ATPase activity assay of WRN helicase (ADP-Glo)
# Settings: read-out: WRN ATPase activity inhibition IC50; 10 nM WRN, 300 µM ATP, 0.4 nM FLAP26; 3 h pre-incubation at 37 °C
# Description: The ADP content generated by ATP hydrolysis catalyzed by WRN helicase was measured using a commercial ADP-Glo assay kit (Promega, #V9102), and the measured ADP level could reflect the ATPase activity of WRN helicase.
# The 45 nt oligonucleotide single-stranded DNA FLAP26 ([…]) was synthesized by Azenta. Reference was made, for example, to Brosh RM Jr et al., J Biol Chem, 2002 Jun;277(26):23236-45. A reaction buffer (30 mM Tris pH 7.5, 2 mM MgCl2, 0.02% BSA, 50 mM NaCl, 0.1% pluronic F127) was prepared. To a 384-well clear plate were sequentially added 5 µL of 3× test compound (which was diluted in the reaction buffer to contain 0.5% DMSO, with a final initial concentration of 10 µM and subjected to 1:3 serial dilution to obtain a total of 9 concentration gradients), 5 µL of 3× WRN recombinant protein, and 3× ATP substrate solution (diluted in the reaction buffer, with final concentrations of WRN and ATP being 10 nM and 300 µM, respectively). The resulting mixture was mixed well by shaking and incubated at 37 °C for 3 h. Subsequently, a 3× FLAP26 solution was prepared using the reaction buffer, and 5 µL of the solution (with a final FLAP26 concentration of 0.4 nM) was added to the 384-well clear plate. The mixture was mixed well by shaking to initiate the enzymatic reaction, and then incubated at room temperature for 30 min.
# 5 µL of the above mixture was transferred to a 3 84-well white plate, and 5 µL of ADP-Glo reagent was added. The mixture was mixed well by shaking, and incubated at room temperature in the dark for 40 min. 10 µL of kinase detection reagent was added to the above solution. The mixture was mixed well by shaking and incubated at room temperature in the dark for 30 min, and then chemiluminescence readings were recorded. The inhibition rate of the compound on the enzyme activity was calculated, and the inhibition rate value and the logarithm value of the compound concentration were fitted using non-linear regression (dose response-variable slope) to obtain the IC50 value of the test compound. Table 1. WRN ATPase activity data of compounds in the examples of the present application
row,IC50,Structure (SMILES)
1,1 nM,Cc1ncnc(C(=O)N2CCN(c3c4n(c5nc(-c6ccccc6)nn5c3=O)[C@@H](C(=O)Nc3ccc5c(c3Cl)OC(F)(F)O5)C[C@@H]4C)[C@H]3CC[C@@H]32)c1O
2,273 nM,"Cc1ncnc(C(=O)N2CCN(c3c4n(c5nc(-c6ccccc6)nn5c3=O)C(C(=O)Nc3ccc5c(c3Cl)OC(F)(F)O5)CC4C)[C@H]3CC[C@@H]32)c1O (single isomer, unassigned) [C89-P2]"
3,10 nM,"Cc1ncnc(C(=O)N2CCN(c3c4n(c5nc(-c6ccccc6)nn5c3=O)C(C(=O)Nc3ccc5c(c3Cl)OC(F)(F)O5)CC4C)CC2)c1O (single isomer, unassigned) [C90-P2]"
4,3 nM,"Cc1ncnc(C(=O)N2CCN(c3c4n(c5nc(-c6ccccc6)nn5c3=O)C(C(=O)Nc3ccc5c(c3Cl)OC(F)(F)O5)CC4C)[C@H]3CC[C@@H]32)c1O (single isomer, unassigned) [C89-P3]"
5,14 nM,"Cc1ncnc(C(=O)N2CCN(c3c4n(c5nc(-c6ccccn6)nn5c3=O)C(C(=O)Nc3ccc5c(c3C)OC(F)(F)O5)CC4C)C3CCC32)c1O (single isomer, unassigned) [C143-P1]"
6,11 nM,Cc1ncnc(C(=O)N2CCN(c3c4n(c5nc(-c6ccccc6)nn5c3=O)C(C(=O)Nc3ccc(C(F)(F)F)cc3Cl)CC4C)[C@H]3CC[C@@H]32)c1O (stereo partly shown)
7,13 nM,"Cc1ncnc(C(=O)N2CCN(c3c4n(c5nc(-c6ccccc6)nn5c3=O)C(C(=O)Nc3ccc5c(c3Cl)OC(F)(F)O5)CC4C)CC2)c1O (single isomer, unassigned) [C90-P3]"

# System: DLD1-WRN-KO cell line
# Assay: Inhibitory activity assay for cell proliferation (CellCounting-Lite), DLD1-WRN-KO off-target control
# Settings: read-out: DLD1-WRN-KO Proliferation inhibition IC50; DLD1-WRN-KO cells, 4 days treatment
# Description: A DLD1-WRN-KO cell line was constructed by stably knocking out the WRN gene in DLD1 cells using CRISPR/Cas9 technology, and the constructed cell line was used to evaluate potential off-target effects of the compounds.
# as §1, §2, §3
row,IC50,Structure (SMILES)
1,> 10000 nM,Cc1ncnc(C(=O)N2CCN(c3c4n(c5nc(-c6ccccc6)nn5c3=O)[C@@H](C(=O)Nc3ccc5c(c3Cl)OC(F)(F)O5)C[C@@H]4C)[C@H]3CC[C@@H]32)c1O
2,> 10000 nM,"Cc1ncnc(C(=O)N2CCN(c3c4n(c5nc(-c6ccccc6)nn5c3=O)C(C(=O)Nc3ccc5c(c3Cl)OC(F)(F)O5)CC4C)[C@H]3CC[C@@H]32)c1O (single isomer, unassigned) [C89-P2]"
3,> 10000 nM,"Cc1ncnc(C(=O)N2CCN(c3c4n(c5nc(-c6ccccc6)nn5c3=O)C(C(=O)Nc3ccc5c(c3Cl)OC(F)(F)O5)CC4C)CC2)c1O (single isomer, unassigned) [C90-P2]"
4,> 10000 nM,"Cc1ncnc(C(=O)N2CCN(c3c4n(c5nc(-c6ccccc6)nn5c3=O)C(C(=O)Nc3ccc5c(c3Cl)OC(F)(F)O5)CC4C)[C@H]3CC[C@@H]32)c1O (single isomer, unassigned) [C89-P3]"
5,> 10000 nM,"Cc1ncnc(C(=O)N2CCN(c3c4n(c5nc(-c6ccccn6)nn5c3=O)C(C(=O)Nc3ccc5c(c3C)OC(F)(F)O5)CC4C)C3CCC32)c1O (single isomer, unassigned) [C143-P1]"
6,> 10000 nM,Cc1ncnc(C(=O)N2CCN(c3c4n(c5nc(-c6ccccc6)nn5c3=O)C(C(=O)Nc3ccc(C(F)(F)F)cc3Cl)CC4C)[C@H]3CC[C@@H]32)c1O (stereo partly shown)
7,> 10000 nM,"Cc1ncnc(C(=O)N2CCN(c3c4n(c5nc(-c6ccccc6)nn5c3=O)C(C(=O)Nc3ccc5c(c3Cl)OC(F)(F)O5)CC4C)CC2)c1O (single isomer, unassigned) [C90-P3]"

# — patent publication EP4834908A1, “FUSED RING COMPOUND, PHARMACEUTICAL COMPOSITION CONTAINING SAME AND USE THEREOF” (dated 2026)
